In the library only some 1.3% were active in any assay of this set; here they are far more common.
Giardia killer: Giardia lamblia killing; AID 540267; 0.15% of 340,000 active; Giardia lamblia trophozoite viability; activity change, % at 7.66 µM, hits read low; in the data active = activity change below about -80%; inconclusive = between about -30% and that limit;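 also: parasites exposed to compound for two days anaerobically before the ATP read; % is scaled to controls: 0 for no effect and ±100 for the full control effect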
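Giardia trophozoites, 100 cells per well, were exposed to compounds for 48 hrs at 37 deg C under anaerobic conditions; viability was then read as ATP content by bioluminescence after 15-30 min at room temperature.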
miR-21 FLuc: miR-21 reporter, rising signal | HeLa miR-21 FLuc reporter, luciferase, 48 h | Potency, µM (top dose mostly 38.3 µM), inactives show at the highest dose reporter change, positive = more light | 340,000 tested, under 10 active | AID 2288; active = well fitted rising curve with a large enough effect; inconclusive = small, poorly fitted or top-dose-only effect; inactive = no such curve, though single readings can be large or run the other way;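 note: % of control where 0% means no effect; miR-21 action dims this reporter so a rising signal means less miR-21 action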
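Compounds were titrated across several concentrations (up to approximately 40 uM) and incubated 48 hours with HeLa miR-21-FLuc reporter cells (miR-21 target sequence downstream of FLuc, endogenous miR-21). Readout was firefly luciferase luminescence after lytic detection reagent.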
PTHR1 ag: agonists of human PTHR1 parathyroid hormone receptor; HEK293 GP2 PTHR1 cells, GloSensor cAMP luminescence, 1 h; Potency, µM (top dose mostly 115 µM), for inactives: at the top dose activation, most hits filed as activators; 0.075% of 410,000 active; Q03431; also: potency is read from the fitted curve at half-maximal effect; nearly all actives have a fitted effect of over 55% in size
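HEK-293-derived GP2 cells expressing PTHR1 and a GloSensor cAMP reporter, 3,000/well, plated overnight, given luciferin plus IBMX (each 0.5 mM as added) for 1 h at 37 °C, then compound for 1 h at 37 °C. Luminescence was read after 15 min at room temperature.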
ERG-DNA inh: ERG Ets/DNA interaction inhibition. fluorescence polarization, His-ERG Ets domain / labelled DNA. P11308. Potency, µM (doses to about 76.9 µM), for inactives: top-dose FP activity, negative = inhibition, hits mostly inhibitors. 0.028% of 370,000 active; active = well fitted inhibition curve with a large enough effect in the polarisation, with a control signal flat; inconclusive = small, poorly fitted or top-dose-only effect, or effect the other way, or a change in a side signal; inactive = no such curve, though single readings can be large or run the other way; the % refers to the polarisation;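 also: polarization taken with two DNA probes labelled with fluorescein and Texas red; potency is read from the fitted curve at half-maximal effect; % of control where 0% means no effect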
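His-tagged ERG Ets domain (1 uM in the protein solution; 300mM KCl, 50mM Tris-HCl, 1mM EDTA, 1mM DTT, pH 7.5) received compound, then a probe mix of 5 nM fluorescein-DNA and 100nM Texas-615-DNA. Fluorescence polarization was read for both dyes.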
12-LOX inh: ALOX12 (human) lipoxygenase inhibition; P18054; purified 12hLO, xylenol orange hydroperoxide absorbance; Potency, µM (highest dose often 108 µM), inactives show top-dose activity change, negative = inhibition, usual class: inhibitors; 1.1% of 580,000 active; AID 1671190; also: potency is read from the fitted curve at half-maximal effect; % is scaled to controls: 0 for no effect and ±100 for the full control effect
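Purified human 12hLO (150 nM final) in 25 mM Hepes, 0.01% Triton X-100, pH 7.0 was preincubated 15 min at room temperature with compound. Then 40 uM arachidonic acid was added, 30 min. Hydroperoxide was read by Fe-XO absorbance ratio 573/405 nm.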
PINK1 expr mod: modulators of PINK1 expression. PINK1 immunofluorescence, high-content cytometry, 24 h. Potency, µM (top dose mostly 76.6 µM), inactives show at the top dose activation (PINK1 increase), hits mostly activators. 0.2% of 410,000 active. AID 624263; active = well fitted activation curve with a large enough effect; inconclusive = small, poorly fitted or top-dose-only effect; cell line not stated here; also: potency is read from the fitted curve at half-maximal effect; % of control where 0% means no effect; nearly all actives have a fitted effect of over 65% in size
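Measures PINK1 amount and localization on or inside mitochondria by immunofluorescence. Stable cells get compounds at 5 concentrations for 24 hours before fixation and staining; CCCP controls included.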
* marks the source's active call; other numbers are inactive results; i = inactive; ? = inconclusive; · = no result; ! = repeats disagree; [ ] = remark or other dose. Unless noted, calls follow the shape of the dose curve; as a rule, active = well fitted curve in the direction sought with a large enough effect; inconclusive = small, poorly fitted or top-dose-only effect, or another doubt; inactive = no such curve, though single readings can be large; an effect the other way counts as inactive or inconclusive.

1. O=C1CCCN1CCCNC(=S)Nc1ccc(Nc2ccccc2)cc1
2. O=C1CCCN1CCCNC(=S)Nc1ccccc1
3. O=C1OCC2(CCN(Cc3ccc4c(c3)CCO4)C2)N1Cc1ccccc1 (stereo not given)
4. O=C1OCC2(CCN(Cc3ccc(Cl)cc3)C2)N1CCN1CCOCC1 (stereo not given)
5. CN(C)S(=O)(=O)c1ccc2[nH]cc(/C=C/c3nc4ccccc4c(=O)n3-c3ccccc3)c2c1
assay / compound	1	2	3	4	5
Giardia killer	15.4	24.3	·	·	1.2
miR-21 FLuc	9.7%	5.2%	·	·	4.7%
PTHR1 ag	-20.6%	i	·	·	-19.6%[57.5 µM]
ERG-DNA inh	-14.2%	36.1%	·	·	1.6%
12-LOX inh	-7.3%	28.2µM*	56.2µM*	-16.3%[176 µM]	-7.4%
PINK1 expr mod	-0.4%	1.7%	·	·	11.2µM*

6. CCn1c(/C=C/c2c[nH]c3ccccc23)nc2ccccc2c1=O
7. COC(=O)c1ccccc1NC(=S)NC(=O)c1cccc2ccccc12
8. CN1CCN(c2ccc(NC(=S)NC(=O)c3cccc4ccccc34)cc2)CC1
9. COC(=O)c1ccccc1NC(=O)c1ccc(COc2cccc3ccccc23)o1
10. COC(=O)c1ccccc1NC(=S)NC(=O)c1ccc2ccccc2c1
assay / compound	6	7	8	9	10
Giardia killer	-10.6	-16.9	57.8	7.1	6.3
miR-21 FLuc	-62.4%	-8.6%	1.0%	-3.7%	-20.5%
PTHR1 ag	-9.7%	-1.4%	-16.2%	i	i
ERG-DNA inh	17.9%	0.3%	0.1%	-0.4%	2.1%
12-LOX inh	-21.7%	31.6µM*	28.2µM*	44.7µM*	?
PINK1 expr mod	?	1.5%	-0.6%	5.6%	2.0%

11. COC(=O)c1ccccc1NC(=O)c1ccc(COc2ccccc2)o1
12. Cc1ccc(C(=O)N2CCC3(CC2)OCC(C(=O)N2CCOCC2)N3C(=O)c2ccc(F)cc2)cc1 (stereo not given)
13. COc1cc(C(=O)N=c2sccn2C)c([N+](=O)[O-])cc1OC
14. Cn1ccsc1=NC(=O)c1ccc([N+](=O)[O-])o1
15. COCC1CN(C2CCC2)CC12CCN(C(=O)c1cccc(C)c1)CC2 (stereo not given)
assay / compound	11	12	13	14	15
Giardia killer	8.7	·	3.1	-93.5*	·
miR-21 FLuc	-33.2%	·	-0.4%	7.3%	·
PTHR1 ag	-0.2%	·	i	-26.9%	·
ERG-DNA inh	6.3%	·	-8.7%	3.0%	·
12-LOX inh	?	12.2%	0.0%	-23.8%	23.1%
PINK1 expr mod	-1.8%	·	1.1%	-0.1%	·

16. CCCN1Cc2cccc(C(=O)Nc3ccc(CN4CCCC4)cc3)c2C1=O
17. CCCC(OC(=O)CC1Sc2ccccc2NC1=O)C(=O)NCc1ccco1 (stereo not given)
18. CC(C)CC(OC(=O)CC1Sc2ccccc2NC1=O)C(=O)NC1CCCC1 (stereo not given)
19. COC(=O)c1cc(NC(=O)C2CCCN(S(=O)(=O)c3c(C)n[nH]c3C)C2)cc(C(=O)OC)c1 (stereo not given)
20. Cc1cccc(NC(=S)NCCSc2ccc(Cl)cc2)c1
assay / compound	16	17	18	19	20
Giardia killer	30.4	10.2	-6.4	·	4.3
miR-21 FLuc	-1.6%	2.4%	4.8%	-4.2%	-1.0%
PTHR1 ag	i	i	-11.8%	?	-34.7%
ERG-DNA inh	3.1%	·	4.0%	-2.0%	0.1%
12-LOX inh	-14.6%	31.6µM*	1.6%	-15.6%	?
PINK1 expr mod	-0.4%	·	8.2%	1.3%	?

21. Cc1ccc(NC(=S)NCC(C)CSc2ccc(Cl)cc2)cc1 (stereo not given)
22. S=C(NCCSc1ccc(Cl)cc1)Nc1cccc(Cl)c1
23. CSc1cccc(NC(=O)CSc2ccc(Cl)cc2)c1
24. CSc1cccc(NC(=S)NCCSc2ccc(Cl)cc2)c1
25. Cc1cccc(NC(=S)NCC(C)CSc2ccc(Cl)cc2)c1 (stereo not given)
assay / compound	21	22	23	24	25
Giardia killer	1.3	·	3.3	·	-23.6
miR-21 FLuc	28.9%	·	-16.9%	·	27.5%
PTHR1 ag	i	·	-17.6%	·	-25.9%
ERG-DNA inh	3.9%	·	1.6%	·	17.7%
12-LOX inh	?	35.5µM*	?	35.5µM*	31.6µM*
PINK1 expr mod	1.2%	·	-1.6%	·	?

26. CC(OC(=O)c1cc(=O)[nH]c2ccccc12)C(=O)Nc1ccc(C(N)=O)cc1 (stereo not given)
27. COc1cc(CC(=O)OCC(=O)Nc2ccc(OC(F)F)cc2)cc(OC)c1OC
28. NS(=O)(=O)c1ccc(Nc2ncccc2[N+](=O)[O-])cc1
29. CC1CCN(S(=O)(=O)c2ccc(C(=O)OC(C)C(=O)N(C)C3CCCCC3)cc2)CC1 (stereo not given)
30. Cc1ccc(S(=O)(=O)n2nc(-c3ccc(Cl)cc3)nc2NCc2ccco2)cc1
assay / compound	26	27	28	29	30
Giardia killer	·	·	-91.0*	3.9	-2.7
miR-21 FLuc	·	·	-17.4%	·	-19.6%
PTHR1 ag	·	·	i	-26.8%	i
ERG-DNA inh	·	·	-2.3%	-4.8%	-5.8%
12-LOX inh	-27.1%	-5.8%	-13.7%	-26.8%	12.6µM*
PINK1 expr mod	·	·	8.7%[38.3 µM]	2.5%	1.3%

31. CCOc1ccc2[nH]cc(C(=O)NCc3ccccc3)c(=O)c2c1
32. COC(=O)c1cc(NCc2cccc3ccccc23)ccc1N1CCOCC1
33. Fc1cccc(Cl)c1CNc1ccc(N2CCCC2)cc1
34. COC(=O)c1cc(NCc2c(F)cccc2Cl)ccc1N1CCOCC1
35. CCc1nn(CC(=O)NCCCN(CC)CC)c(=O)c2cc3occc3n12
assay / compound	31	32	33	34	35
Giardia killer	31.5	·	-1.0	-4.5	·
miR-21 FLuc	7.5%	·	-7.9%	-3.5%	-3.4%
PTHR1 ag	-38.7%	·	-7.7%	2.51µM*	i
ERG-DNA inh	3.4%	·	20.7%	3.3%	8.3%
12-LOX inh	298.9%	-4.1%	31.6µM*	16.4%	-16.5%
PINK1 expr mod	6.3%	·	9.6%	?	0.6%

36. CNC(=S)Nc1ccc(C23CC4CC(CC(C4)C2)C3)cc1
37. O=C(Nc1cccc(C(F)(F)F)c1)c1ccc(F)c(S(=O)(=O)N2CCc3ccccc3C2)c1
38. CCOc1ccccc1NC(=S)Nc1ncccc1C
39. S=C(NCCc1ccccc1)Nc1ncccn1
40. Cc1cccnc1NC(=S)NCCc1ccccc1
assay / compound	36	37	38	39	40
Giardia killer	1.2	·	-2.9	15.9	3.9
miR-21 FLuc	-13.7%	13.2%	-2.5%	·	-50.5%
PTHR1 ag	-19.3%	-88.2%	-26.7%	-10.2%	-16.3%
ERG-DNA inh	3.1%	2.6%	·	-0.3%	5.8%
12-LOX inh	44.7µM*	-13.7%	11.2µM*	?	7.08µM*
PINK1 expr mod	?	4.8%	6.0%	-0.2%	0.9%

41. COc1ccc(S(=O)(=O)NCCC(=O)NC(C)c2ccccc2)cc1 (stereo not given)
42. O=C(c1ccc2c(c1)OCO2)N1CCC(N2CC3CC(C2)[C@H]2CCCC(=O)N2C3)CC1 (stereo not given in full)
43. CCCN1Cc2cccc(C(=O)Nc3cc(Cl)ccc3C)c2C1=O
44. CC(=O)c1ccc(NC(=O)c2cc(CC(C)C)on2)cc1
45. CC(C)Oc1ccc(C(=O)NC2(C(F)(F)F)NC(=O)N(CCCc3ccccc3)C2=O)cc1 (stereo not given)
46. COc1cc2c(CCNC(C)=O)c[nH]c2cc1O
assay / compound	41	42	43	44	45	46
Giardia killer	2.8	·	·	-3.0	1.0	2.3
miR-21 FLuc	-2.2%	·	4.8%	-17.7%	1.7%	·
PTHR1 ag	i	·	i	i	-33.2%	i
ERG-DNA inh	1.2%	·	-0.6%	-3.3%	5.0%	7.5%
12-LOX inh	3.4%	-9.7%	9.6%	0.0%	-34.0%	39.8µM*!
PINK1 expr mod	0.2%[38.3 µM]	·	0.8%	-0.6%	7.7%	1.6%

Structures above that have a nitro group on carbon (three):
13. COc1cc(C(=O)N=c2sccn2C)c([N+](=O)[O-])cc1OC
14. Cn1ccsc1=NC(=O)c1ccc([N+](=O)[O-])o1
28. NS(=O)(=O)c1ccc(Nc2ncccc2[N+](=O)[O-])cc1
assay / compound	13	14	28
Giardia killer	3.1	-93.5*	-91.0*
miR-21 FLuc	-0.4%	7.3%	-17.4%
PTHR1 ag	i	-26.9%	i
ERG-DNA inh	-8.7%	3.0%	-2.3%
12-LOX inh	0.0%	-23.8%	-13.7%
PINK1 expr mod	1.1%	-0.1%	8.7%[38.3 µM]
